Data published in paper PMC11024197 (Nature Communications, 2024).

B1: PEX13 SH3-CTR (residues 261-403) (domain or fragment, human, UniProt Q92968 261-403, looked up)
chain: VTDSINWASGEDDHVVARAEYDFAAVSEEEISFRAGDMLNLALKEQQPKVRGWLLASLDGQTTGLIPANYVKILGKRKGRKTVESSKVSKQQQSFTNPTLTKGATVADSLDEQEAAFESVFVETNKVPVAPDSIGKDGEKQDL
notes: 15N-labelled in the NMR titrations, unlabelled as ITC titrant; also called PEX13 SH3-CTR 261-403; source: E. coli BL21 (DE3), purified (Ni-NTA, SUMO cleavage, reverse Ni-NTA, SEC); not shown: His6-SUMO, N-terminal, cleaved
B2: PEX13 SH3 domain (residues 261-346) (domain or fragment, human, UniProt Q92968 261-346, looked up)
chain: VTDSINWASGEDDHVVARAEYDFAAVSEEEISFRAGDMLNLALKEQQPKVRGWLLASLDGQTTGLIPANYVKILGKRKGRKTVESS
notes: 15N-labelled in the NMR titrations, unlabelled in ITC; also called PEX13 SH3 261-346; source: E. coli BL21 (DE3), purified (Ni-NTA, SUMO cleavage, reverse Ni-NTA, SEC); not shown: His6-SUMO, N-terminal, cleaved

Molecular target: T1, PEX5 NTD (1-315) (human, UniProt P50542 1-315)
T1 construct: source: E. coli BL21 (DE3), purified (Ni-NTA, SEC)
Test: NMR titration; 15N-labelled PEX13 construct (100 µM reference) with unlabelled ligand added; 1H,15N correlation spectra; 298 K; 20 mM Tris pH 7.5, 50 mM NaCl
Conditions: both partners purified

| Binder | binding result |
| --- | --- |
| B1 | binds |
| B2 | binds |
